# Only a part is listed here, and it is no random draw. Active and inactive are the calls of the source.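 How the source made its calls: active means binding response more than 3 SD above or below the average of its plate-row segment, actives on both sides; inconclusive means wells at one plate position flagged as instrument error; inactive means the rest.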
# The chains behind the UniProt entries cited, without tags or fusion partners.
# UniProt Q99759, whole entry: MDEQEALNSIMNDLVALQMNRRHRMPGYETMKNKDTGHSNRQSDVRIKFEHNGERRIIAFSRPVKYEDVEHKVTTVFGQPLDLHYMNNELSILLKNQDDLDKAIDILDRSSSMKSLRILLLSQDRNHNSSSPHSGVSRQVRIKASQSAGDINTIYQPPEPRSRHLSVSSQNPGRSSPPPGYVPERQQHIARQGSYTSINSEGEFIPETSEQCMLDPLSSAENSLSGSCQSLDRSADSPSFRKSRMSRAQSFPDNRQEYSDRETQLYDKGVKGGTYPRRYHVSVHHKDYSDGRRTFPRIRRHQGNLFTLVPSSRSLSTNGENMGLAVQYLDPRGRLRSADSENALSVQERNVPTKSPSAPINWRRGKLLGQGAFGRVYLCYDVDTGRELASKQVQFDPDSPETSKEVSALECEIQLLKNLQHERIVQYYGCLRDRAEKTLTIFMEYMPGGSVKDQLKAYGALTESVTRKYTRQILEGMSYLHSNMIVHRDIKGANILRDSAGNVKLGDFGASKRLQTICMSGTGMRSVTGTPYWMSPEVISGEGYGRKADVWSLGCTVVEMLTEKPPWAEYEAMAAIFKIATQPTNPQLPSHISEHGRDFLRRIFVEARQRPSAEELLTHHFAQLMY
# Molecular target: Mitogen-activated protein kinase kinase kinase 3 (Homo sapiens) (UniProt Q99759)
# Assay: modulators of MEKK3-MEK5 PB1 binding, primary screen, biochemical, wildtype MEKK3, multiplex bead flow cytometry, Alexa488-MEK5 (AID 1529);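 further: Alexa488 bead fluorescence after subtracting the streptavidin-only scavenger bead signal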
# Settings: bead-based flow cytometry, Alexa488-MEK5 binding to MEKK3; at 10 µM; actives lie on both sides; 0 = blocked by unlabeled MEK5, 100 = vehicle
row,Compound,binding response (% of control)
1,CCOC(=O)N1CCC(Nc2cccc(C)c2)CC1,inactive: 107%
2,COc1cc(C(=O)NCC2(N(C)C)CCCCC2)ccc1OC(F)F,inactive: 99%
3,Cc1ccc(OCC(C)C)c(CN(CCCl)CCCl)c1,inactive: 104%
4,O=C(NCC1(N2CCCCC2)CCCCC1)c1ccc(F)cc1,inactive: 100%
5,CCOC(=O)N1CCC(Nc2ccc(F)cc2)CC1,inactive: 97%
6,COc1ccc(NC2CCN(CCc3ccccc3)CC2)c(OC)c1,inactive: 101%
7,CCOc1ccc(C)cc1CN(CCCl)CCCl,inactive: 95%
8,CCOC(=O)N1CCC(Nc2ccc(OC)cc2)CC1,inactive: 106%
9,N#CC1(Nc2ccccc2)CCN(Cc2ccccc2)CC1,inactive: 105%
10,O=C(OC1CN2CCC1CC2)C1c2ccccc2Oc2ccccc21 (centres undefined),inactive: 107%
11,O=C(NCC1(N2CCOCC2)CCCCC1)c1cc2ccccc2o1,inactive: 101%
12,Cc1cc(C)cc(N(C(=O)c2ccccc2)C2CCN(C(=O)OC(C)(C)C)CC2)c1,inactive: 107%
13,CSc1ccccc1C(=O)NCC1(N2CCCCC2)CCCCC1,inactive: 101%
14,O=C(NCC1(N2CCCCC2)CCCCC1)c1ccc(=O)[nH]c1,inactive: 106%
15,COc1ccc(C(=O)NCC2(N3CCCCC3)CCCCC2)cc1,inactive: 102%
16,COc1ccc(C(=O)NCC2(N3CCCCC3)CCCCC2)c(OC)c1OC,inactive: 103%
17,CC(C)(C)OC(=O)N1CCC(N(C(=O)c2ccccc2)c2ccc(F)cc2)CC1,inactive: 99%
18,CCCOc1ccc(C(=O)NCC2(N(C)C)CCCCC2)cc1OC,inactive: 100%
19,CN1CCC(Nc2cccc(F)c2)CC1,inactive: 95%
20,COc1cc(OC)c(C(=O)NCC2(N(C)C)CCCCC2)cc1OC,inactive: 103%
21,COc1ccc(CN(CCCl)CCCl)cc1Cl,inactive: 101%
22,CN(C)c1cccc(C(=O)NCC2(N3CCCCC3)CCCCC2)c1,inactive: 105%
23,CC(C)c1ccc(NC2CCN(C(=O)OC(C)(C)C)CC2)cc1,inactive: 99%
24,COc1ccc(NC2CCN(C(=O)OC(C)(C)C)CC2)cc1,inactive: 90%
25,CN1CCN(CCOC(=O)C(O)(c2ccccc2)c2ccccc2)CC1,inactive: 110%
26,O=C(NCC1(N2CCOCC2)CCCCC1)c1cc(=O)[nH]c2ccccc12,inactive: 101%
27,COc1cc(C(=O)NCC2(N3CCCCC3)CCCCC2)ccc1OC(F)F,inactive: 103%

row,Compound,binding response (% of control)
1,O=C(NCC1(N2CCCCC2)CCCCC1)c1cccc(C(F)(F)F)c1,inactive: 97%
2,O=C(NCC1(N2CCCCC2)CCCCC1)c1cccc([N+](=O)[O-])c1,inactive: 99%
3,CCN1CCC(Nc2ccc(Cl)cc2)CC1,inactive: 100%
4,N#CC1(Nc2ccccc2)CCN(CCc2ccccc2)CC1,inactive: 108%
5,O=C(NCC1(N2CCCCC2)CCCCC1)c1ccc(OC(F)F)cc1,inactive: 97%
6,c1ccc(CN2CCC(Nc3ccccc3)CC2)cc1,inactive: 95%
7,CCCN1CCC(Nc2cc(OC)cc(OC)c2)CC1,inactive: 100%
8,CN(C)C1(CNC(=O)c2cccc(C#N)c2)CCCCC1,inactive: 102%
9,CC(C)(C)OC(=O)N1CCC(N(C(=O)c2ccccc2)c2ccc(Cl)cc2)CC1,inactive: 94%
10,N#Cc1ccc(C(=O)NCC2(N3CCCCC3)CCCCC2)cc1,inactive: 104%
11,O=C(OC1CN2CCC1CC2)C1c2ccccc2C=Cc2ccccc21 (centres undefined),inactive: 113%
12,CCOC(=O)N1CCC(Nc2ccc(C)cc2)CC1,inactive: 104%
13,COc1ccc(C(=O)NCC2(N3CCOCC3)CCCCC2)cc1OC,inactive: 93%
14,CCCOc1ccc(C)cc1CN(CCCl)CCCl,inactive: 89%
15,CN1CCC(Nc2ccc(Cl)cc2)CC1,inactive: 101%
16,CCC(CO)(C(=O)OC1CN2CCC1CC2)c1ccccc1 (centres undefined),inactive: 93%
17,COc1cccc(C(=O)N(c2cc(C)cc(C)c2)C2CCN(C(=O)OC(C)(C)C)CC2)c1,inactive: 102%
18,COc1cc(OC)cc(C(=O)NCC2(N3CCOCC3)CCCCC2)c1,inactive: 98%
19,CCCOc1ccc(C(=O)NCC2(N(C)C)CCCCC2)cc1,inactive: 105%
20,CC(C)(C)OC(=O)N1CCC(Nc2ccccc2)CC1,inactive: 102%
21,O=C(O)C1(Nc2ccccc2)CCN(Cc2ccccc2)CC1,inactive: 95%
22,CCOc1ncccc1C(=O)NCC1(N2CCOCC2)CCCCC1,inactive: 98%
23,CN1CCC(Nc2ccc(F)c(Cl)c2)CC1,inactive: 100%
24,CN(C)c1ccc(C(=O)NCC2(N3CCCCC3)CCCCC2)cc1,inactive: 98%
25,CCN1CCC(Nc2cccc(F)c2)CC1,inactive: 93%
26,Fc1ccccc1NC1CCN(Cc2ccccc2)CC1,inactive: 80%
27,COc1cc(OC)cc(C(=O)NCC2(N3CCCCC3)CCCCC2)c1,inactive: 98%

# — PubChem BioAssay AID1529 (NMMLSC, 2009)
